The nature of series [1]: circular dichroism. To be noted: 10 mM phosphate; pH 7.4; 22 °C; 50-400 uM. A general note: Circular dichroism is widely used to follow secondary structure.
Series [2] can be described thus: Circular dichroism spectroscopy (helicity). The class given is physicochemical. The protocol: CD measurements were performed using a Jasco model J-710 spectropolarimeter which was routinely calibrated with (1S)-(+)-10-camphorsulfonic acid. A stock solution of 1-2 mg of peptide was dissolved in 1 mL of water. Separate 500 μL solutions of 50, 100, 200 and 400 μM were then prepared using an appropriate amount of stock solution and making up the different with 10 mM Phosphate Buffer (final pH 7.1). […] Jasco quartz cell over the wavelength range 260-185 nm at 100 nm/min. with a bandwidth of 1.0 nm, response time of 2 s, resolution step width of 1 nm and sensitivity of 20-50 Mdeg. Each spectrum represents the average of 5 scans. Spectra were analyzed using the spectral analysis software and smoothed using ‘adaptive smoothing’ function. Concentrations were determined using the PULCON method. [Wider, Dreier, 2006, J. Am. Chem. Soc. 128:2571-2576]
The incorporation of two lactam bridges induced appreciable helicity, monitored at 222 nm, and was calculated to range between 32-77% helicity. By comparison, the unconstrained nociceptin peptides (SEQ ID NOs:1-5, 9 and 10) had less than 6% α-helicity in water. […] This is due to the fact that residues 1-6 (or 1-5 in 6) are not constrained and would not be expected to be in a helical conformation as they feature amino acids that have little or no propensity to adopt helices in proteins. To determine whether the exocyclic regions were the sole cause of low helicity, SEQ ID NO:15 without the N-terminal message was investigated further. This 12-residue peptide features eight residues (K, R, Q) known to favor α-helicity in proteins, and was 60% helical in phosphate buffer by CD spectral analysis. The serine residue is conserved within the sequence of many of these peptides and is known to be a helix breaker.

The target in series [3] is T1, ORL-1 receptor (Mus musculus, UniProt P35377).
T1 construct: Neuro-2a cells were a gift from Professor John Mattick's laboratory; endogenous in cells; host or cells: Neuro-2a cells
Nature of the series: Agonist functional activity assessed by ERK phosphorylation (pERK) in Neuro-2a cells. Format: cell-based. The procedure:
Neuro-2a cells were a gift from Professor John Mattick's laboratory (Institute of Molecular Bioscience, University of Queensland) and were cultured in Gibco® DMEM (Invitrogen, CA, USA) supplemented with 10% FBS (Invitrogen, CA, USA), GIBCO® Pen/Strep (50 units/mL penicillin and 50 μg/mL streptomycin, Invitrogen, CA, USA) and GIBCO® NEAA (1× concentration, Invitrogen, CA, USA). Cells were split 1:10 every 3 days.
All cells were incubated at 37° C. and 5% CO2. When treated with pertussis toxin (PTX, catalogue number P7208, Sigma-Aldrich, NY, USA), cells were incubated with 500 ng/mL for 15 hours before use. Cells treated with MEK inhibitor PD98059 (catalogue number PHZ1164, Invitrogen, CA, USA) were preincubated with 50 μM for 1 hour before use.
Cells were placed in 12-well plates (NUNC™, NY, USA) and allowed to adhere for 24-36 h. […] For agonist assays, cells were challenged with compounds for 35 minutes and incubated at 37° C. (5% CO2).
Membranes were washed 3×10 minutes with TBE (with 0.1% Tween-20) and incubated with a primary antibody. For pERK, rabbit polyclonal ERK1+2 [pTpY185/187] […] Instead, rabbit IgG Phospho-ERK1 (T202/Y204)/ERK2 (T185/Y187) (1:2000, catalogue number AF1018, R&D Systems, MN, USA) was used. […] After multiple washes, the membranes were developed using ECL Detection Solution (Amersham Biosciences) and visualized using photographic film. Radiography was quantified using ImageJ (ImageI 1.36b, NIH).
pERK and total ERK concentrations were determined using a modified protocol for the AlphaScreen Surefire Assay. The modified protocol used half the volume of reagents recommended in the manufacturers' protocol with 2 μL of cell extract in both pERK and total ERK assays. The ratio of pERK to total ERK was determined using equation 1 and normalized to control. For agonist responses, the controls used were PBS (0%) and 1 μM nociceptin1-17-OH (100%). For antagonist responses, the controls used were PBS (100%) and 100 nM nociceptin1-17-NH2 (100%).
Concentration responses were analyzed using non-linear regression (variable slope) (Prism5, GraphPad Software) and data is presented as either EC50 (for agonists) or IC50 (antagonists).
Helix constrained and unconstrained peptides were pre-screened using the pERK assay at a single concentration.

The source of these data is patent publication US8921306B2, “Nociceptin mimetics” (The University of Queensland, priority 2010, dated 2014).

Marks after values point to notes of the source that are not given here.

The molecule `CC(=O)NCCCC[C@H](NC(=O)CNC(=O)[C@@H](NC(=O)[C@H](Cc1ccccc1)NC(=O)CNC(=O)CNC(=O)[C@@H](N)Cc1ccccc1)[C@@H](C)O)C(=O)N[C@@H](CCCNC(=N)N)C(=O)N[C@@H](CCCCN)C(=O)N[C@@H](CO)C(=O)N[C@@H](CC(N)=O)C(=O)N[C@@H](CCCNC(=N)N)C(=O)N[C@@H](CCCCN)C(=O)N[C@@H](CCCCNC(C)=O)C(=O)N[C@@H](C)C(=O)N[C@@H](CC(N)=O)C(=O)N[C@@H](CCC(N)=O)C(=O)N[C@@H](CC(N)=O)C(N)=O` displayed a helicity in series [1] of 0.03 frac.
Still for that read-out and setting: the figure for `CC(=O)N[C@H]1CCCCNC(=O)C[C@@H](C(=O)N[C@@H](CCCNC(=N)N)C(=O)N[C@@H](CCCCN)C(=O)N[C@H]2CCCCNC(=O)C[C@@H](C(N)=O)NC(=O)[C@H](CCC(N)=O)NC(=O)[C@H](CC(N)=O)NC(=O)[C@H](CCCCN)NC2=O)NC(=O)[C@H](CO)NC(=O)[C@H](CCCCN)NC(=O)[C@H](CCCNC(=N)N)NC1=O` is 0.6 frac.
With `CC(C)C[C@@H]1NC(=O)[C@H](CCCCN)NC(=O)[C@H](CCCNC(=N)N)NC(=O)[C@@H](NC(=O)[C@@H]2CC(=O)NCCCC[C@H](NC(=O)[C@@H](NC(=O)[C@H](Cc3ccccc3)NC(=O)CNC(=O)CNC(=O)[C@@H](N)Cc3ccccc3)[C@@H](C)O)C(=O)N[C@@H](C)C(=O)N[C@@H](CCCNC(=N)N)C(=O)N[C@@H](CCCCN)C(=O)N2)CCCCNC(=O)C[C@@H](C(N)=O)NC1=O`, the helicity in series [1] turned out to be 0.54 frac.
Same read-out and setting: with `CC(C)C[C@H](NC(=O)[C@H](CCCCN)NC(=O)[C@H](CCCNC(=N)N)NC(=O)[C@H](C)NC(=O)[C@H](CO)NC(=O)[C@H](CCCCN)NC(=O)[C@H](CCCNC(=N)N)NC(=O)[C@H](C)NC(=O)CNC(=O)[C@@H](NC(=O)[C@H](Cc1ccc(F)cc1)NC(=O)CNC(=O)CNC(=O)CNCc1ccccc1)[C@@H](C)O)C(=O)N[C@@H](CCCCN)C(=O)N[C@@H](CC(N)=O)C(=O)N[C@@H](CCC(N)=O)C(N)=O` the figure was 0.03 frac; with `CC(C)C[C@H](NC(=O)[C@H](CCCCN)NC(=O)[C@H](CCCNC(=N)N)NC(=O)[C@H](C)NC(=O)[C@H](CO)NC(=O)[C@H](CCCCN)NC(=O)[C@H](CCCNC(=N)N)NC(=O)[C@H](C)NC(=O)CNC(=O)[C@@H](NC(=O)[C@H](Cc1ccc(F)cc1)NC(=O)CNC(=O)CNC(=O)[C@@H](N)Cc1ccccc1)[C@@H](C)O)C(=O)N[C@@H](CCCCN)C(=O)N[C@@H](CC(N)=O)C(=O)N[C@@H](CCC(N)=O)C(N)=O`, 0.02 frac.
In the case of `CC(C)C[C@H](NC(=O)[C@H](CCCCN)NC(=O)[C@H](CCCNC(=N)N)NC(=O)[C@H](C)NC(=O)[C@H](CO)NC(=O)[C@H](CCCCN)NC(=O)[C@H](CCCNC(=N)N)NC(=O)[C@H](C)NC(=O)CNC(=O)[C@@H](NC(=O)[C@H](Cc1ccccc1)NC(=O)CNC(=O)CNC(=O)CNCc1ccccc1)[C@@H](C)O)C(=O)N[C@@H](CCCCN)C(=O)N[C@@H](CC(N)=O)C(=O)N[C@@H](CCC(N)=O)C(N)=O`, in series [1], the helicity stood at 0.04 frac.
For the molecule `CC(C)C[C@H](NC(=O)[C@H](CCCCN)NC(=O)[C@H](CCCNC(=N)N)NC(=O)[C@H](C)NC(=O)[C@H](CO)NC(=O)[C@H](CCCCN)NC(=O)[C@H](CCCNC(=N)N)NC(=O)[C@H](C)NC(=O)CNC(=O)[C@@H](NC(=O)[C@H](Cc1ccccc1)NC(=O)CNC(=O)CNC(=O)[C@@H](N)Cc1ccccc1)[C@@H](C)O)C(=O)N[C@@H](C)C(=O)N[C@@H](CC(N)=O)C(=O)N[C@@H](CCC(N)=O)C(N)=O`, in series [1], the helicity was determined as 0.02 frac.
The same measure, in the same setting: with `C[C@@H](O)[C@H](N)C(=O)NCC(=O)N[C@H]1CCCCNC(=O)C[C@@H](C(=O)N[C@@H](CCCNC(=N)N)C(=O)N[C@@H](CCCCN)C(=O)N[C@H]2CCCCNC(=O)C[C@@H](C(N)=O)NC(=O)[C@H](CCC(N)=O)NC(=O)[C@H](CC(N)=O)NC(=O)[C@H](CCCCN)NC2=O)NC(=O)[C@H](CO)NC(=O)[C@H](CCCCN)NC(=O)[C@H](CCCNC(=N)N)NC1=O` the figure was 0.34 frac; with `C[C@@H](O)[C@H](NC(=O)[C@H](Cc1ccc(F)cc1)NC(=O)CNC(=O)CNC(=O)[C@@H](N)Cc1ccccc1)C(=O)NCC(=O)N[C@H]1CCCCNC(=O)C[C@@H](C(=O)N[C@@H](CCCNC(=N)N)C(=O)N[C@@H](CCCCN)C(=O)N[C@H]2CCCCNC(=O)C[C@@H](C(N)=O)NC(=O)[C@H](CCC(N)=O)NC(=O)[C@H](CC(N)=O)NC(=O)[C@H](CCCCN)NC2=O)NC(=O)[C@H](CO)NC(=O)[C@H](CCCCN)NC(=O)[C@H](CCCNC(=N)N)NC1=O`, 0.45 frac; with `C[C@@H](O)[C@H](NC(=O)[C@H](Cc1ccccc1)NC(=O)CNC(=O)CNC(=O)CNCc1ccccc1)C(=O)NCC(=O)N[C@H]1CCCCNC(=O)C[C@@H](C(=O)N[C@@H](CCCNC(=N)N)C(=O)N[C@@H](CCCCN)C(=O)N[C@H]2CCCCNC(=O)C[C@@H](C(N)=O)NC(=O)[C@H](CCC(N)=O)NC(=O)[C@H](CC(N)=O)NC(=O)[C@H](CCCCN)NC2=O)NC(=O)[C@H](CO)NC(=O)[C@H](CCCCN)NC(=O)[C@H](CCCNC(=N)N)NC1=O`, 0.41 frac.
`C[C@@H]1NC(=O)[C@@H](NC(=O)[C@H](CCCCN)NC(=O)[C@H](CCCNC(=N)N)NC(=O)[C@@H]2CC(=O)NCCCC[C@H](NC(=O)CNC(=O)[C@@H](NC(=O)[C@H](Cc3ccccc3)NC(=O)CNC(=O)CNC(=O)[C@@H](N)Cc3ccccc3)[C@@H](C)O)C(=O)N[C@@H](CCCNC(=N)N)C(=O)N[C@@H](CCCCN)C(=O)N[C@@H](CO)C(=O)N2)CCCCNC(=O)C[C@@H](C(N)=O)NC(=O)[C@H](CCC(N)=O)NC(=O)[C@H](CC(N)=O)NC1=O` yielded a helicity in series [1] of 0.32 frac.
Still for that read-out and setting: the figure for `C[C@H](NC(=O)[C@H](CCC(N)=O)NC(=O)[C@H](CC(N)=O)NC(=O)[C@H](C)NC(=O)[C@H](C)NC(=O)[C@H](CCCCN)NC(=O)[C@H](CCCNC(=N)N)NC(=O)[C@H](C)NC(=O)[C@H](CO)NC(=O)[C@H](CCCCN)NC(=O)[C@H](CCCNC(=N)N)NC(=O)[C@H](C)NC(=O)CNC(=O)[C@@H](NC(=O)[C@H](Cc1ccccc1)NC(=O)CNC(=O)CNC(=O)[C@@H](N)Cc1ccccc1)[C@@H](C)O)C(N)=O` is 0.02 frac.
What is called Emax is the greatest response seen or fitted, relative to the assay's reference. As usually defined, the EC50 is the concentration at which the effect is half-maximal. In the case of `C[C@@H](O)[C@H](NC(=O)[C@H](Cc1ccc(F)cc1)NC(=O)CNC(=O)CNC(=O)[C@@H](N)Cc1ccccc1)C(=O)NCC(=O)N[C@H]1CCCCNC(=O)C[C@@H](C(=O)N[C@@H](CCCNC(=N)N)C(=O)N[C@@H](CCCCN)C(=O)N[C@H]2CCCCNC(=O)C[C@@H](C(N)=O)NC(=O)[C@H](CCC(N)=O)NC(=O)[C@H](CC(N)=O)NC(=O)[C@H](CCCCN)NC2=O)NC(=O)[C@H](CO)NC(=O)[C@H](CCCCN)NC(=O)[C@H](CCCNC(=N)N)NC1=O` [compound 8], the “θ222/208 (buffer)” value in series [2] (10 mM phosphate buffer (pH 7.4) at 22° C.) came out at 0.90. For the same molecule, the “fH (buffer)” value in series [2] (10 mM phosphate buffer (pH 7.4) at 22° C., fH calculated based on θ at 222 nm) was 0.45. Moreover, the “fH (TFE*)” value in series [2] (buffer: TFE 50:50, determined at 25° C.) is reported as 0.93^#. The Emax in series [3] (N2a, agonist pERK, controls PBS (0%) and 1 μM nociceptin1-17-OH (100%)) was 101 ± 6%. Besides, in series [3] (agonist pERK activity, Neuro-2a cells, 35 minutes), the “-log EC50 ± SEM” value came to 10.40 ± 0.11. In addition, the EC50 in series [3] (agonist pERK activity, Neuro-2a cells, 35 minutes, read-out: EC50) worked out at 0.04 nM.
